Legend:
B16 melanoma = test: Survival time of mice bearing the B16 melanoma; parameters: species or system mouse (C57B1 mice); conditions: mouse, in vivo
B16 melanoma cells = test: Cytotoxicity: colony-forming ability of B16 melanoma cells; assay type: cell-based; conditions: compared with compound 8
Protocol: The cytotoxicity of compounds 8 and 12 was determined by measuring their effects on the colony-forming ability of B16 melanoma cells. The cells were maintained in Eagle's minimum essential medium supplemented with 10% fetal bovine serum. To obtain exponentially growing B16 melanoma cells, a 25 cm^2 flask was inoculated with 10^5 cells for two days before addition of drug. The cell monolayer was exposed to various concentrations of compound for 1 hour. After exposure, the layer was washed twice with PBS to remove the compound. The cells were harvested with 2 mM EDTA in PBS, and 200 cells were plated on a 60 mm dish with 5 mL of medium. After incubation for 12 days, the colonies were stained with crystal violet and counted. […] The LD50 was determined from the individual dose-response curves.

Cc1ccc(S(=O)(=O)N(C)NS(C)(=O)=O)cc1 [Compound 12]
activity against the B16 melanoma (in words) (B16 melanoma): appreciable levels of activity against the B16 melanoma
toxicity to B16 melanoma cells in culture relative to compound 8 (B16 melanoma cells): approximately four-times more toxic

Reference: patent US4892887A, “N,N'-bis(sulfonyl)hydrazines having antineoplastic activity” (Yale University, priority 1988, dated 1990)
